The results in this text go back to patent US11267800B2, “Cyclohexyl acid triazole azines as LPA antagonists” (BRISTOL-MYERS SQUIBB COMPANY, priority 2017, dated 2022).

Sequences of proteins named here, by UniProt entry; tags and fusion partners are left off.
UniProt Q92633, whole entry: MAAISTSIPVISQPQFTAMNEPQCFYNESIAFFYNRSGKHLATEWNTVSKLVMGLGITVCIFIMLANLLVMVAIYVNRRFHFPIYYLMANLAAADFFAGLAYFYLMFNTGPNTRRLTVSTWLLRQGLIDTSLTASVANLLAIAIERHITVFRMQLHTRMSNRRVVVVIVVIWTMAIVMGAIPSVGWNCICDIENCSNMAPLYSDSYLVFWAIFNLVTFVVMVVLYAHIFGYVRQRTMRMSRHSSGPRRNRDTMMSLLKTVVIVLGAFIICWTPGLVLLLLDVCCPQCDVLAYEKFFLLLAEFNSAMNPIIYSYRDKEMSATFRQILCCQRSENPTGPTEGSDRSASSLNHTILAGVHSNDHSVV

The term IC50 denotes the concentration needed to halve the response being measured.

The assay addresses human LPA1 (Homo sapiens, UniProt Q92633). In words: LPA1 functional antagonist assay (calcium flux). Type of assay: cell-based. A general note: Calcium flux is commonly read through the fluorescence of an indicator in the cells.
In the case of `Cc1nc(-c2nnn(C)c2CNc2nccc(C(C)CC(F)(F)F)n2)ccc1O[C@H]1CCC[C@H](C(=O)O)C1` (stereo partly shown), the IC50 was 67 nM. For the compound `COc1cccc(-c2ccnc(NCc3c(-c4ccc(O[C@H]5CCC[C@H](C(=O)O)C5)c(C)n4)nnn3C)n2)c1`, the IC50 came to 150 nM. For `Cc1nc(-c2nnn(C)c2CNc2nccc(Nc3ccccc3)n2)ccc1O[C@H]1CCC[C@H](C(=O)O)C1`, the IC50 amounted to 182 nM. `Cn1nnc(-c2ccc(O[C@H]3CCC[C@H](C(=O)O)C3)cn2)c1CNc1nccc(-c2cccnc2)n1` [Example 32]: the IC50 was determined as 1210 nM.
